Reference: patent US9617577B2, “Bacillus pumilus bilirubin oxidase and applications thereof” (CENTRE NATIONAL DE LA RECHERCHE SCIENTIFIQUE, priority 2010, dated 2017)

Chains of the proteins cited; added tags and fusions are not shown. Lines headed by an entry give the natural chain unless they say otherwise; changes in a name come on top.
UniProt A8FAG9: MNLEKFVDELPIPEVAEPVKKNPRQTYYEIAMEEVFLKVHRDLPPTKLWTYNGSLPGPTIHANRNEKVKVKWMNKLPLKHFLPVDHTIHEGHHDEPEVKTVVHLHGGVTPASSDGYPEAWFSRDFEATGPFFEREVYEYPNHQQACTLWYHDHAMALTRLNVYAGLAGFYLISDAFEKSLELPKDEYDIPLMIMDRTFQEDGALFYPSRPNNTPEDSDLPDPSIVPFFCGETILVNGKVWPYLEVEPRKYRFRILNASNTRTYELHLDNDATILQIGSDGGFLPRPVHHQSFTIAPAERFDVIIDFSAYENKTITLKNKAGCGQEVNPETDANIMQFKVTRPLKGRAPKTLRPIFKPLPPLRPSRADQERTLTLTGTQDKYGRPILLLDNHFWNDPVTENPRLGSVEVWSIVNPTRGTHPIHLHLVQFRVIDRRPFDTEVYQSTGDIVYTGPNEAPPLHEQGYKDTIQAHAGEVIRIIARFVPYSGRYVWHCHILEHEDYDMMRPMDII

Experiments:
[1] = tested on: Bacillus subtilis CotA (BOD); conditions: same optimal activity conditions; Martins et al., 2008; cited from earlier work
[2] = target: T1, Bacillus pumilus bilirubin oxidase (BOD), wild type, strain SAFR-032, SEQ ID No. 2 (C-terminal 6xHis tag) (Bacillus pumilus, UniProt A8FAG9); assay: Steady-state kinetics of ABTS oxidation by B. pumilus BOD; assay type: biochemical; conditions: 37° C., 0.1 M citrate/phosphate buffer, pH 3
T1 sequence (A8FAG9 with tags, fused parts or gaps): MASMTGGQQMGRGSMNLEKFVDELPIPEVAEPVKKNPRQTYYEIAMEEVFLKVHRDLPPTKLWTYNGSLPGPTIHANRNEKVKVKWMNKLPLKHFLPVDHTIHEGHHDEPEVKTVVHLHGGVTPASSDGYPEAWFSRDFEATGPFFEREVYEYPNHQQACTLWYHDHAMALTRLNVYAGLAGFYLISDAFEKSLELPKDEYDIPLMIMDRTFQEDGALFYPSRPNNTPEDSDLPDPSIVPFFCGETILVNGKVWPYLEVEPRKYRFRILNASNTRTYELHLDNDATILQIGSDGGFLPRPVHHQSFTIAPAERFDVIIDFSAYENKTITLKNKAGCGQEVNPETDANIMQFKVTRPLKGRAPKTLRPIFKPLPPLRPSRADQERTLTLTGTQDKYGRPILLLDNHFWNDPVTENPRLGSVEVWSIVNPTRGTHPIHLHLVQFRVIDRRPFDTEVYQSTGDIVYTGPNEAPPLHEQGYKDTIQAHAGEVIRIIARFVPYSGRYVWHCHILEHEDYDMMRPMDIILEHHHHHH

Q: For `CCn1c(=NN=c2sc3cc(S(=O)(=O)O)ccc3n2CC)sc2cc(S(=O)(=O)O)ccc21` [ABTS, 2,2′-azinobis(3-ethylbenzothiazoline-6-sulphonic acid)], which “kcat (for ABTS)” value [1] is on record?
A: The value was 322 s⁻¹.

Q: What about the “kcat (for ABTS)” value [2] of the same molecule?
A: Its value is 391.3 s⁻¹.
